High-throughput results: PubChem, Broad Institute
Rows were chosen to be rich in hits. Some 1.9% of all compounds tested hit in one or more screens of this group.
ARNT TACC3 PPI = ARNT/TACC3 interaction disruption. 390,000 compounds, 0.66% hits. inhibition, % at 9.99 µM. AlphaScreen His-ARNT PAS-B/GST-TACC3 binding, luminescence; TACC3 fragment carries E629A point mutation. Q9Y6A5;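 active = mean inhibition of replicates at least 50% and at least half of replicates each reaching 50%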;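 also: 0% = complete ARNT plus TACC3 wells and 100% = ARNT alone without TACC3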
ERp5 inh = ERp5 (human) disulfide isomerase inhibition; Q15084; ERp5 insulin aggregation, absorbance 650 nm, 90 min; inhibition, % at 9.99 µM; 350,000 compounds, 0.05% hits; AID 651711;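 active = mean replicate inhibition above about 25%, with every replicate also reaching it, limit read from the data, passing the limit was not always enough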
PDI inh = PDI (human) enzyme inhibition; P07237; PDI insulin aggregation turbidity, A650, 90 min; inhibition, % at 10 µM; 350,000 compounds, 0.052% hits;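 active = mean inhibition across replicates of 30% or more, whatever share of single replicates reach that level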
PglD DTNB = PglD (C. jejuni) enzyme inhibition; 360,000 compounds, 0.098% hits; inhibition, % at 12.5 µM; purified PglD enzyme, DTNB colorimetric CoA detection; in the data active = inhibition above about 16%, passing the limit was not always enough
Yeast UUG start = alters start codon recognition fidelity in yeast. S. cerevisiae UUG-firefly luciferase reporter, luminescence/redox ratio. 350,000 tested, 0.13% active. activity score, % at 18.7 µM. AID 602363;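 active means replicate mean at a twofold rise or more, about +100% in these data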;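 further: firefly luciferase made from a UUG start codon reports start codon fidelity; reporter light over untreated wells divided by growth signal over untreated wells; some hits fall short of that in this replicate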
FGF22 binding = binders of recombinant human FGF22 by thermal shift; activity (Tm shift, normalised), % at 9.99 µM; SYPRO orange fluorescence; percent of sucrose octasulfate shift, DMSO zero; 340,000 compounds, 1.5% hits; Q9HCT0;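 active = mean Tm shift, scaled 0 neutral to 100 positive control, at about 1.3% or above, every replicate too, limit read from the data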
Active calls of the source: *; x = no result given.

item	mol	ARNT TACC3 PPI	PDI inh	ERp5 inh	FGF22 binding	Yeast UUG start	PglD DTNB
1	CC(C)CNC(=S)N1CCN(Cc2ccc3c(c2)OCO3)CC1	2	-4	2	0	x	x
2	C[C@H](NC(=O)c1ccccc1)C(=O)N1CCN(Cc2ccc3c(c2)OCO3)CC1	0	-7	5	0	-9	2
3	NC(=O)CC[C@H](NC(=O)c1ccc(F)cc1)C(=O)N1CCN(Cc2ccc3c(c2)OCO3)CC1	-1	6	3	43*	-25	-1
4	COc1ccc(C=Nc2ccc3[nH]ncc3c2)c(O)c1	-4	-2	4	43*	x	x
5	Oc1c(Br)cc(Br)cc1C=Nc1ccc2[nH]ncc2c1	25	-11	-9	0	x	x
6	Cc1noc(C)c1S(=O)(=O)N(C)C[C@H]1OCCCC[C@@H](C)Oc2ccc(NC(=O)Nc3ccccc3)cc2C(=O)N([C@@H](C)CO)C[C@H]1C	9	x	6	0	-8	0
7	CC(=O)C1=C(O)C(=O)N(CCc2c[nH]c3ccccc23)C1c1ccc(O)cc1 (centres undefined)	0	46*	x	x	x	x
8	COc1ccc(C(=O)NC(=S)NNC(=O)c2ccc(NC(C)=O)cc2)cc1Br	1	1	2	43*	x	x
9	COc1ccc(C(=O)NNC(=S)NC(=O)c2ccc(F)cc2)cc1Br	x	2	-1	0	-14	1
10	O=C(NCC(F)(F)F)[C@@H]1[C@@H](CO)[C@@H]2Cn3c(ccc(-c4ccncc4)c3=O)[C@@H]2N1Cc1ccncc1	0	x	-1	0	x	0

item	mol	ARNT TACC3 PPI	PDI inh	ERp5 inh	FGF22 binding	Yeast UUG start	PglD DTNB
11	COc1ccc(C[C@H]2CN3C(=NC[C@@H]3Cc3ccc(O)cc3)N2C[C@H](C)NC(=O)CCC2CCCCC2)cc1	7	18	-5	0	-10	-1
12	C/C=C(\C)C(=O)NCCN1C2=NC[C@H](Cc3ccc(O)cc3)N2C[C@H]1Cc1ccc(O)cc1	-8	45*	1	0	-17	-2
13	COc1ccc(C[C@@H]2CN3C(=NC[C@@H]3Cc3ccc(O)cc3)N2C[C@H](C)NC(=O)CCC2CCCCC2)cc1	16	40*	x	x	-15	-1
14	CCNC(=S)Nc1ccc(C)c(S(=O)(=O)Nc2ccccc2OC)c1	4	-10	1	0	x	x
15	COc1ccccc1NS(=O)(=O)c1cc(NC(=O)c2sc3cc(Cl)ccc3c2Cl)ccc1C	x	-8	-4	44*	x	x
16	COc1ccc(OCCN2C(=O)NC3(CCc4ccccc4C3)C2=O)cc1 (centres undefined)	-4	9	-3	44*	x	x
17	CO[C@@H]1CN(C)C(=O)c2cc(NC(=O)c3cc(C)on3)ccc2OC[C@@H](C)N(CC2CC2)C[C@@H]1C	-3	x	2	0	x	3
18	CCOc1cccc(C(=O)NC(=S)Nc2ccc(Cl)cc2C(=O)O)c1	-1	2	0	43*	x	x
19	CN(C)c1ccc(C(=O)OCC(=O)NCC2CCCO2)cc1 (centres undefined)	-6	-16	3	x	-14	-4
20	O=C(COC(=O)c1ccc(O)cc1)NCC1CCCO1 (centres undefined)	10	6	4	43*	x	x

Filtered by structure: the compounds so far containing a Cl atom
item	mol	ARNT TACC3 PPI	PDI inh	ERp5 inh	FGF22 binding	Yeast UUG start	PglD DTNB
15	COc1ccccc1NS(=O)(=O)c1cc(NC(=O)c2sc3cc(Cl)ccc3c2Cl)ccc1C	x	-8	-4	44*	x	x
18	CCOc1cccc(C(=O)NC(=S)Nc2ccc(Cl)cc2C(=O)O)c1	-1	2	0	43*	x	x

Copied from the list.
FGF22 binding result of #16 : 44*
PDI inh result of #15 : -8

Going on with the list.
item	mol	ARNT TACC3 PPI	PDI inh	ERp5 inh	FGF22 binding	Yeast UUG start	PglD DTNB
21	O=C(Cn1cc2c(n1)CCCC2)N1CCOCC1	x	x	-1	0	-17	-2
22	CC1CCN(C(=O)Cn2cc3c(n2)CCCC3)CC1	47*	x	5	0	2	0
23	CNC(=S)Nc1ccc(-c2nc3ccc(C)cc3s2)cc1	-4	-2	-1	22*	-24	-3
24	COc1ccc([C@@H]2[C@@H]3C(=O)N(C(C)(C)C)C(=O)[C@@H]3[C@]3(Cc4ccc(Cl)cc4)C(=O)N(c4cccc(C)c4)C(=O)N23)cc1	-1	-15	2	1.3*	-35	-3
25	COc1ccc([C@@H]2[C@@H]3C(=O)N(C(C)(C)C)C(=O)[C@@H]3[C@]3(Cc4ccc(Cl)cc4)C(=O)N(c4ccc(C)cc4)C(=O)N23)cc1	1	2	3	0	-8	-8
26	CC(C)C[C@@]12C(=O)N(c3cccc(Cl)c3)C(=O)N1[C@H](c1ccc(Cl)cc1)[C@@H]1C(=O)N(C3CCCCC3)C(=O)[C@@H]12	-6	-1	-2	1.6*	-11	-1
27	CC(C)NC(=O)N1CC2(C1)[C@H](c1ccccc1)[C@@H](CO)N2C(=O)C1CCCCC1	x	x	2	x	x	x
28	COc1ccccc1S(=O)(=O)N1[C@@H]2CNC[C@H]1C2c1ccc(-c2ccccc2)cc1 (some centres undefined)	x	x	0	x	x	x
29	Cc1ccc(C)c(S(=O)(=O)Nc2cc(SCC(=O)O)c(O)c3ccccc23)c1	54*	7	x	x	x	x
30	CCc1ccc(S(=O)(=O)Nc2cc(SCC(=O)O)c(O)c3ccccc23)cc1	x	-4	0	0	x	x

item	mol	ARNT TACC3 PPI	PDI inh	ERp5 inh	FGF22 binding	Yeast UUG start	PglD DTNB
31	C[C@@H]1CN([C@H](C)CO)C(=O)c2cc(NC(=O)Nc3ccc4c(c3)OCO4)ccc2O[C@@H]1CN(C)C(=O)Nc1ccccc1	3	x	x	0	11	1
32	O=C(Nc1ccccc1)N1CC(=O)N2[C@H](CO)[C@H](c3ccc(C#CC4CCCC4)cc3)[C@H]2C1	x	x	-4	x	x	x
33	O=C(Nc1ccc(C(F)(F)F)cc1)N[C@@H]1C=C[C@@H](CC(=O)N2CCCCC2)O[C@H]1CO	46*	x	-1	0	-10	0
34	COc1cc(/C=C/C(=O)O)cc(S(=O)(=O)NCCCC(=O)O)c1OC	-7	-1	-1	43*	x	x
35	Cc1cc(C(=O)CN2CCCC2)c(C)n1-c1ccc(Cl)cc1	1	4	5	1	-9	3
36	CCN1CCN(CC(=O)c2cc(Cl)ccc2Cl)CC1	-22	4	4	43*	x	x
37	CCCC(=O)Nc1ccc2c(c1)OC[C@@H](C)N(C(=O)CC1CC1)C[C@H](C)[C@H](OC)CN(C)C2=O	-7	x	1	0	-6	-4
38	O=[N+]([O-])C(=C1Nc2ccccc2N1)/C(Cl)=C(/Cl)Br	61*	-2	x	x	-13	2
39	O=C(CCSc1ccc(Br)cc1)Nc1cccnc1	-9	5	-3	44*	x	x
40	O=C(CCC(=O)c1ccc(Br)cc1)Nc1cccnc1	-15	0	0	0	x	x

item	mol	ARNT TACC3 PPI	PDI inh	ERp5 inh	FGF22 binding	Yeast UUG start	PglD DTNB
41	CC(=NNC(=S)N1CC2CCC(CC2)C1)c1ccncn1	58*	7	3	0	x	x
42	CC(=NNC(=S)N1CCCCC1)c1ccccn1	x	-4	2	-1	x	x
43	CO[C@H]1CC[C@H]2CCN(C)C(=O)[C@@H](C)[C@@H](OC)CN(C)C(=O)c3cc(C#N)ccc3OC[C@@H]1O2	1	x	0	0	x	1
44	CCOC(=O)/C(C#N)=C1/C=C(C)c2ccccc2N1	3	3	-3	43*	x	x
45	C[C@@H]1CN([C@@H](C)CO)C(=O)Cc2cc(NC(=O)C3CC3)ccc2O[C@H]1CN(C)C(=O)Nc1ccccc1	3	x	3	0	19	8
46	O=C(CCn1c(=S)oc2ccccc21)Nc1ccccc1F	x	25	1	44*	-27	0

Laid out differently: 2 of the compounds above.
41	CC(=NNC(=S)N1CC2CCC(CC2)C1)c1ccncn1
  ARNT TACC3 PPI: 58*; PDI inh: 7; ERp5 inh: 3; FGF22 binding: 0; Yeast UUG start: x; PglD DTNB: x

46	O=C(CCn1c(=S)oc2ccccc21)Nc1ccccc1F
  ARNT TACC3 PPI: x; PDI inh: 25; ERp5 inh: 1; FGF22 binding: 44*; Yeast UUG start: -27; PglD DTNB: 0
